Data on 24 compounds can be found in PubChem BioAssay AID1621 (Southern Research Specialized Biocontainment Screening …, 2009).

Structures are written as SMILES. Some of the results follow. Results with a measured potency or affinity are listed apart. Some tests of the compounds listed are not included; inactive here does not mean inactive elsewhere. Calls of active or inactive are those of the source. The rule behind the calls is not given here.

This assay in a line: West Nile virus antiviral activity, cell-based, CPE readout (AID 1621). To be noted: West Nile virus-infected cells, at 10 µM, hits give high values.
On to `CN(C)c1ccc(C(=O)NCC2(N(C)C)CCCCC2)cc1`, for which the CPE inhibition was inactive: -0.13%.
With `CN(C)C1CCCC1OC(=O)C(O)(c1ccccc1)c1ccccc1` (centres undefined) the figure was inactive: 0.5%.
Under `Cc1ccccc1C(=O)NCC1(N2CCCCC2)CCCCC1` stands inactive: -0.66%.
For `O=C(NCC1(N2CCCCC2)CCCCC1)c1cc(F)c(F)cc1Cl`, the CPE inhibition is inactive: -0.37%.
As to `C=CCN1CCN(CCOC(=O)C(O)(c2ccccc2)c2ccccc2)CC1`, the CPE inhibition is inactive: -0.1%.
With `O=C(NCC1(N2CCCCC2)CCCCC1)c1cccc(Br)c1` the figure was inactive: -0.3%; with `CCN1CCCC(OC(=O)C2(O)c3ccccc3C=Cc3ccccc32)C1` (centres undefined), inactive: 1.15%.
In the case of `Cc1cc(C(=O)NCC2(N3CCCCC3)CCCCC2)ccc1[N+](=O)[O-]`, the CPE inhibition was inactive: -0.34%.
With `COc1ccc(C(=O)NCC2(N(C)C)CCCCC2)cc1` the figure was inactive: 0%; with `O=C(NCC1(N2CCCCC2)CCCCC1)c1cc([N+](=O)[O-])ccc1Cl`, inactive: -0.89%.
Under `CN1[C@@H]2CC[C@H]1CC(OC(=O)C(O)(c1ccccc1)c1ccccc1)C2` (some centres undefined) stands inactive: -0.56%; under `CC(C)N1C(=O)CC2(CCN(CCOC(=O)C(O)(c3ccccc3)c3ccccc3)CC2)C1=O`, inactive: 0.25%.
For the compound `COc1cc(SC)ccc1C(=O)NCC1(N(C)C)CCCCC1`, the CPE inhibition is inactive: -1.08%.
Under `CCN(CC)CC(C)C(C)OC(=O)C(O)(c1ccccc1)c1ccccc1` (centres undefined) stands inactive: -0.33%.
For `Cc1ccc(C(=O)NCC2(N3CCCCC3)CCCCC2)cc1`, the CPE inhibition is inactive: -0.73%.
Under `O=C(OC1CN2CCC1CC2)C(CO)(c1ccccc1)c1ccccc1` (centres undefined) stands inactive: 0.25%.
With `COc1ccc(Br)c(C(=O)NCC2(N3CCCCC3)CCCCC2)c1` the figure was inactive: -0.96%; with `CN(C)c1cccc(C(=O)NCC2(N(C)C)CCCCC2)c1`, inactive: 0.15%; with `CC(C)Oc1ccc(C(=O)NCC2(N(C)C)CCCCC2)cc1`, inactive: 0.22%.
Consider `CN(C)C1(CNC(=O)c2ccc(Br)cc2)CCCCC1`, for which the CPE inhibition is inactive: -0.46%.
Take `COc1cc(C(=O)NCC2(N(C)C)CCCCC2)c([N+](=O)[O-])cc1OC`: the CPE inhibition is inactive: -0.14%.
Take `COc1ccc(Cl)cc1C(=O)NCC1(N(C)C)CCCCC1`: the CPE inhibition was inactive: -0.74%.
As to `COc1cccc(C(=O)NCC2(N3CCCCC3)CCCCC2)c1`, the CPE inhibition was inactive: -1.11%.
With `O=C(NCC1(N2CCCCC2)CCCCC1)c1cccc(Cl)c1` the figure was inactive: -0.72%.
